# Data as given in PubChem BioAssay (NCI).
# Only a part is listed here, and it is no random draw. Some salts or complexes appear as unconnected parts, following the source record. Some compounds were tested as several samples or in several runs, with calls that do not always agree. Activity calls are given as the source filed them. Rule as the data show it: active = growth inhibition above about 70%; inactive = the rest.
# Assay: NCI Yeast Anticancer Drug Screen. Data for the wt2 strain (AID 169);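 also: 0% = growth of vehicle-treated yeast cultures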
# Conditions: S. cerevisiae wt2 strain growth inhibition, active compounds read high
# Procedure: Growth inhibition of yeast strains with defined genetic alterations is measured as a screen for potential anti-cancer activity. Selected strains with alterations in DNA damage repair or cell cycle control were exposed to compounds and growth inhibition was measured relative to vehicle treated controls. The strain used in this assay is wt2
Compound,growth inhibition (at 1.2 µM),growth inhibition (at 3.7 µM),growth inhibition (at 11.0 µM),growth inhibition (at 33.0 µM),growth inhibition (at 100.0 µM)
COc1ccccc1N.O=[N+]([O-])c1cc([N+](=O)[O-])cc([N+](=O)[O-])c1,inactive: -3%,inactive: 1%,inactive: 39%,active: 99%,active: 99%
Cc1ccc2ccc3ccc4ccccc4c3c2c1.O=C1c2cc([N+](=O)[O-])ccc2-c2c1cc([N+](=O)[O-])cc2[N+](=O)[O-],inactive: -3%,inactive: -2%,inactive: -1%,inactive: 1%,inactive: 9%
Cc1c2ccccc2cc2ccccc12.O=[N+]([O-])c1cc([N+](=O)[O-])c(O)c([N+](=O)[O-])c1,inactive: -1%,inactive: 8%,inactive: 4%,inactive: 28%,active: 93%
Nc1ccccc1.O=[N+]([O-])c1cc([N+](=O)[O-])cc([N+](=O)[O-])c1,inactive: -2%,inactive: -2%,inactive: 28%,active: 99%,active: 99%
[Au].[C-]#N.[C-]#N,inactive: -22%,inactive: -30%,inactive: -36%,inactive: -24%,inactive: -8%
[Au+].[Au+].c1ccc([PH+](c2ccccc2)c2ccccc2)cc1.c1ccc([PH+](c2ccccc2)c2ccccc2)cc1.n1n[n-]c(-c2nnn[n-]2)n1,inactive: -30%,inactive: 26%,active: 97%,active: 98%,active: 97%
O=[N+]([O-])C(F)(COCC(O)CO)[N+](=O)[O-] (stereo not given),inactive: 0%,inactive: 14%,inactive: 19%,inactive: 47%,active: 90%
[Au+].[N-]=[N+]=N.c1ccc([PH+](c2ccccc2)c2ccccc2)cc1,inactive: 13%,active: 99%,active: 99%,active: 97%,active: 93%
